# Patent USRE28949E, “2-Chloroethane-(thiono)-phosphonic acid esters” (dated 1976)
# How the values were obtained:
# [1] = system: Wheat plants; assay: Growth Inhibition/Wheat; details: average length; sprayed 5,000 ppm at 4 cm; after 10 days; water control 20.0
# [2] = system: Millet plants (Panicum miliaceum); assay: Growth Inhibition/Millet; details: after 6 days, water control 9.0
# [3] = system: bean plants; assay: Growth Inhibition/Beans (Watering Test); details: watered once, 10 kg/hectare; after 8 days; water control 25.0
# [4] = system: tomato plants; assay: Acceleration of Fruit Ripeness/Tomato Plants; details: green, unripe fruits sprayed once with 5,000 ppm; water control 0
# [5] = system: Beans (Phaseolus vulgaris); assay: Growth Inhibition and Defoliation/Beans; details: after 6 days; for Length in cm: average length of 3 beans, sprayed 5,000 ppm at 10 cm height, water control 17.0; for Number of leaves: defoliation, 3 beans per experiment, sprayed 5,000 ppm, water control 6
# [6] = system: Beans (Phaseolus); assay: Growth Inhibition/Beans (spray, 2,500 ppm); details: sprayed 2,500 ppm at 10 cm; after 6 days; versus untreated control
# [7] = system: linseed; assay: Growth Inhibition/Linseed Test; details: after three days, dark, 25°C; for % inhibition of the shoot with 50 ppm / % inhibition of the shoot with 250 ppm: Table A2
smiles,measurement,setting,value
CNP(=S)(Cl)CCCl (centres unmarked),Length in cm,[1],6.0 cm
same,Growth increase in cm,[2]; sprayed 1000 ppm at 4 cm,4.0 cm
same,Growth increase in cm,[2]; sprayed 2000 ppm at 4 cm,1.0 cm
same,Length in cm,[3],14.0 cm
same,Acceleration of ripeness,[4],15 days
same,Length in cm,[5],11.0 cm
same,Number of leaves,[5],3
O=P(Cl)(CCCl)Oc1ccccc1 (centres unmarked),Acceleration of ripeness,[4],14 days
S=P(Cl)(CCCl)Oc1c(Cl)cccc1Cl (centres unmarked),% inhibition of the shoot with 2500 ppm,[6],68%
CC(C)NP(=O)(Cl)CCCl (centres unmarked),Length in cm,[3],11.5 cm
same,% inhibition of shoot with 250 ppm,"[7]; Table A1, shoot, 250 ppm, 100 percent = standstill of growth, 0 percent = untreated plant",55%
same,% inhibition of root with 250 ppm,"[7]; root, 250 ppm, 100 percent = standstill of growth, 0 percent = untreated plant",85%
same,Acceleration of ripeness,[4],17 days
same,Length in cm,[5],11.0 cm
same,Number of leaves,[5],3
CCCCNP(=O)(Cl)CCCl (centres unmarked),% inhibition of the shoot with 2500 ppm,[6],63%
S=P(Cl)(CCCl)Oc1ccccc1 (centres unmarked),Length in cm,[1],5.0 cm
same,Length in cm,[5],11.5 cm
same,Number of leaves,[5],0
CC(C)NP(=S)(Cl)CCCl (centres unmarked),% inhibition of the shoot with 50 ppm,[7]; shoot,40%
same,% inhibition of the shoot with 250 ppm,"[7]; shoot, 250 ppm",54%
same,Acceleration of ripeness,[4],15 days
S=P(Cl)(CCCl)Oc1cccc(Cl)c1 (centres unmarked),% inhibition of the shoot with 50 ppm,[7]; shoot,25%
same,% inhibition of the shoot with 250 ppm,"[7]; shoot, 250 ppm",50%
Cc1ccc(OP(=S)(Cl)CCCl)cc1 (centres unmarked),% inhibition of the shoot with 2500 ppm,[6],55%
S=P(Cl)(CCCl)Oc1ccccc1Cl (centres unmarked),% inhibition of the shoot with 2500 ppm,[6],63%
